Measured values: PubChem BioAssay AID1556 (The Scripps Research Institute Molecular Screening Center, 2009)
Only a part is listed here, and it is no random draw. Calls of active or inactive are those of the source.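 How the source made its calls: active means inhibition above the mean plus 3 SD of all compounds in the same screening run (cut at about 4.5% in these data); inactive means the rest.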

These molecules were tested on metallo-beta-lactamase IMP-1 (Pseudomonas aeruginosa) (assay: inhibition of IMP-1 nitrocefin hydrolysis – biochemical, epi-absorbance readout, Pseudomonas aeruginosa enzyme, primary screen (AID 1556;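 further: 0% = IMP-1 with DMSO and 100% = DMSO wells lacking enzyme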)). Conditions: purified IMP-1, nitrocefin hydrolysis, epi-absorbance fluorescence; at 5.6 µM; stronger effect = higher value.
In the case of `CN(C(=O)Cc1ccc(Cl)c(Cl)c1)[C@@H]1CCCC[C@H]1N1CCCC1`, the inhibition is reported as inactive: -1.02%. `CC(C)/C=N\N=C(\N)N[N+](=O)[O-]` was tested, and the inhibition was inactive: -1.89%. In the case of `O=[As](O)(c1ccccc1Br)c1ccccc1Br`, the inhibition is reported as inactive: -0.89%. `CC1(CBr)Cn2c(nc3ccccc3c2=O)S1` (stereo unspecified) was tested, and the inhibition was inactive: -1.63%. In the case of `Clc1n[nH]nc1-c1nn[nH][15n]1`, the inhibition is reported as inactive: -2.04%. For `CC(C)(C)C(=O)NC(Sc1ncccn1)C(Cl)(Cl)Cl` (stereo unspecified), the inhibition was inactive: -3.19%. `CCC1=CC2Cc3nc4ccc(Cl)cc4c(N)c3C(C1)C2` (stereo unspecified) was tested, and the inhibition was inactive: -1.53%. In the case of `O=P1(Nc2ccccn2)COc2ccccc2OC1`, the inhibition is reported as inactive: -4.39%. With `CCOP(=O)(NC(=NC(C)c1ccccc1)NC(C)c1ccccc1)OCC` (stereo unspecified) the inhibition was inactive: -3.49%. With `CCOP(=O)(Nc1ccc(C)cn1)OCC` the inhibition was inactive: -2.95%. With `Nc1cccc([As](=O)(O)c2ccccc2)c1` the inhibition was inactive: -1.24%. In the case of `O=P1(Nc2ccc(Br)cn2)COc2ccccc2OC1`, the inhibition is reported as inactive: -1.81%. With `O=[As](O)(c1cccs1)c1cccs1` the inhibition was inactive: -1.01%. `Cc1ccc(OCC(=O)OC2CN3CCC2CC3)cc1` (stereo unspecified) was tested, and the inhibition was inactive: -2.57%. With `O=P1(Nc2ncccn2)COc2ccccc2OC1` the inhibition was inactive: -2.84%. For `CN(C)C1(CNC(=O)c2ccc(S(C)(=O)=O)cc2)CCCCC1`, the inhibition was inactive: -0.01%. `O=C(/C=C/c1ccccc1)OC1CN2CCC1CC2` (stereo unspecified) was tested, and the inhibition was inactive: -2.02%. With `Cc1nn(-c2ccccc2)c2c1P(=O)(N1CCOCC1)N(C)C(c1ccccc1)=N2` (stereo unspecified) the inhibition was inactive: -4.21%. In the case of `Cc1ccc(C(=O)OC2CN3CCC2CC3)cc1` (stereo unspecified), the inhibition is reported as inactive: -0.79%. In the case of `CC1CCC(C(C)C)C(OP(=O)(Nc2ccccn2)c2ccccc2)C1` (stereo unspecified), the inhibition is reported as inactive: -5.54%. `CCOP1(=S)c2c(C)nn(CCC#N)c2N=C(c2ccc(F)cc2)N1C` (stereo unspecified) was tested, and the inhibition was inactive: -0.28%. `O=[N+]([O-])c1ccc2c(c1)nnn2O` was tested, and the inhibition was inactive: -3.33%. `O=C(O)COc1ccc([As](=O)(O)O)cc1[N+](=O)[O-]` was tested, and the inhibition was inactive: -1.72%. With `Nc1ccccc1[As](=O)(O)c1ccccc1` the inhibition was inactive: -0.65%. `CCOP1(=S)c2c(C)nn(CCC#N)c2N=C(c2ccccc2F)N1C` (stereo unspecified) was tested, and the inhibition was inactive: -2.16%. `O=P(Nc1nccs1)(c1ccccc1)c1nc2ccccc2s1` (stereo unspecified) was tested, and the inhibition was inactive: -3.05%. `O=P(Nc1nccs1)(Oc1ccccc1)Oc1ccccc1` was tested, and the inhibition was inactive: -2.48%. For `CS(=O)(=O)c1cc([N+](=O)[O-])c2no[n+]([O-])c2c1`, the inhibition was inactive: -0.18%. With `COc1cc(C2NCCC3(OCCO3)C2(C)C)cc(OC)c1OC` (stereo unspecified) the inhibition was inactive: -2.99%. With `CCOP(=O)(Nc1cccc2ccccc12)OCC` the inhibition was inactive: -1.87%. `Nc1cccc2c([As](=O)(O)O)cccc12` was tested, and the inhibition was inactive: 2.73%. `Cc1ccc(NCCc2c([N+](=O)[O-])cc([N+](=O)[O-])cc2[N+](=O)[O-])cc1` was tested, and the inhibition was inactive: -4.17%. For `CCCOP(=S)(Nc1nc(N)cc(=O)[nH]1)OCCC`, the inhibition was inactive: -2.95%. `O=[As](O)(c1cccc(O)c1)c1cccc(O)c1` was tested, and the inhibition was inactive: -1.78%. In the case of `Cc1cccc(OCC(=O)OC2CN3CCC2CC3)c1` (stereo unspecified), the inhibition is reported as inactive: -4.22%. For `O=C(OC1CN2CCC1CC2)c1ccc(Cl)cc1` (stereo unspecified), the inhibition was inactive: 0.75%. With `COc1cc(C(=O)NCC2(N3CCOCC3)CCCCC2)cc(Cl)c1OC(C)C` the inhibition was inactive: -2.92%. `O=[As](O)(O)c1cccnc1` was tested, and the inhibition was inactive: -0.97%. With `CS(=O)(=O)c1ccc(Cl)c(NC(=O)COC(=O)C(O)(c2ccccc2)c2ccccc2)c1` the inhibition was inactive: -2.51%. For `COc1ccc(N/C(=N/P(=O)(N2CCOCC2)N2CCOCC2)N2CCOCC2)cc1`, the inhibition was inactive: -2.09%. `COc1ccc2nc(NP(=O)(c3ccccc3)c3ccccc3)sc2c1` was tested, and the inhibition was inactive: -2.72%. `COc1cc(I)ccc1[As](=O)(O)O` was tested, and the inhibition was inactive: -1.54%. `Cc1c2c(nc3ccccc13)SC(C(Cl)Cl)C2` (stereo unspecified) was tested, and the inhibition was inactive: -2.09%. With `O=C(OC1CN2CCC1CC2)C12CC3CC(CC(C3)C1)C2` (stereo unspecified) the inhibition was inactive: -3.99%. `Cc1cc(=O)[nH]c(N[N+](=O)[O-])n1` was tested, and the inhibition was inactive: -1.85%. With `CCN(CC)C(=S)SC(NC=O)C(Cl)(Cl)Cl` (stereo unspecified) the inhibition was inactive: -2.75%. `CC(C)NC(=O)NP(=O)(Oc1ccccc1)Oc1ccccc1` was tested, and the inhibition was inactive: -3.49%. For `O=[N+]([O-])c1cc([N+](=O)[O-])c(-c2ccn[nH]2)s1`, the inhibition was inactive: -1.9%. `ClCCSc1nnc(-c2cccnc2)o1` was tested, and the inhibition was inactive: -6.9%. In the case of `CC(C)c1ccc(OP(=O)(Nc2ccccn2)Oc2ccccc2F)cc1` (stereo unspecified), the inhibition is reported as inactive: -3%. With `Cc1ccc(OP(=O)(Nc2ccc([N+](=O)[O-])cn2)Oc2ccc(C)cc2)cc1` the inhibition was inactive: -0.55%.
